Test results from patent US8470889B2 (TRT Pharma Inc., priority 2008, dated 2013).

Molecular target: T1, W741C mutated AR (Homo sapiens, UniProt P10275, W742C)
T1 sequence (P10275 1-920 W742C): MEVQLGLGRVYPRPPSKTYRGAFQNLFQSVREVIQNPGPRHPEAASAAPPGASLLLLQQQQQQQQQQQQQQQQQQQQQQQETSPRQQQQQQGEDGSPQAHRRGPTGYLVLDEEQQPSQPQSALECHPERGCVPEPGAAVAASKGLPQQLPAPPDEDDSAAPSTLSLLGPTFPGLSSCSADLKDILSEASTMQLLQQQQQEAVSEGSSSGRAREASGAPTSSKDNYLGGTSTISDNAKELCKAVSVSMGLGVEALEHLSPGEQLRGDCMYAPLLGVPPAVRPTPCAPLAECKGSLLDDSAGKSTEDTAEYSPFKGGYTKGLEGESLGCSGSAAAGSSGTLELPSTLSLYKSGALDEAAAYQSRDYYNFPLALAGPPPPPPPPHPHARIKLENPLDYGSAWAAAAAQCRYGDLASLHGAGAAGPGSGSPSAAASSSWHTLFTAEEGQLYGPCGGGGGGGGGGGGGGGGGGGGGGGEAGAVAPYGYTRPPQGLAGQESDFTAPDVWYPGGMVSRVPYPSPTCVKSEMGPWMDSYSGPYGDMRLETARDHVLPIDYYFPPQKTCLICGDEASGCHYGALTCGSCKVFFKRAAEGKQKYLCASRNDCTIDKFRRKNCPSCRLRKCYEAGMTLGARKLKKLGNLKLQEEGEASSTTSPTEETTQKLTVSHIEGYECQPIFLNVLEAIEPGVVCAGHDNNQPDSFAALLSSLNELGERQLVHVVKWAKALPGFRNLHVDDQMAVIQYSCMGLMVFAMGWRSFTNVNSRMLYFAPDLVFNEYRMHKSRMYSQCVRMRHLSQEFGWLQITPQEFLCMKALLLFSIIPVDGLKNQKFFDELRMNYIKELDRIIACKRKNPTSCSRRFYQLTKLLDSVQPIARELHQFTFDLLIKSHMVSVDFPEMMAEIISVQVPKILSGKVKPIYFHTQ
Test: Luciferase assay for AR transactivation, W741C AR, PC-3 cells
Type: cell-based
Design: Antiandrogenic activity evaluated by luciferase assay in PC-3 cells W741C: key to the marks not given beside the values
Details: 0.1 nM DHT; for suppression of DHT-induced transactivation of W741C AR: test compound 0.1-1 μM, PC-3 cells; for Antiandrogenic activity evaluated by luciferase assay in PC-3 cells W741C: test compound 1 μM

SMILES	suppression of DHT-induced transactivation of W741C AR	Antiandrogenic activity evaluated by luciferase assay in PC-3 cells W741C
CC1=C(/C=C/C(=O)/C=C/c2cccc(C(F)(F)F)c2)C(C)(C)CCC1O (racemic) [Compound B25]	dose-dependent activity	
CC1(C)CCC(O)C=C1/C=C/C(=O)/C=C/c1csc2ccccc12 (stereo not drawn) [Compound B92]	pure antagonists	++
CC1(C)CCC(O)C=C1/C=C/C(=O)/C=C/c1cnc2ccccc2c1 (stereo not drawn) [Compound B95]	effective	++
CC(C)(O)C(=O)Nc1ccc([N+](=O)[O-])c(C(F)(F)F)c1 [OHF, hydroxyflutamide, reference compound]		++
